Assay results as given in ChEMBL document CHEMBL4138253, “Synthesis and Biological Evaluation of a Series of Bile Acid Derivatives as FXR Agonists for Treatment of NASH” (ACS Med Chem Lett, 2017).

Molecular target: T1, Bile acid receptor (Homo sapiens) (UniProt Q96RI1)
T1 sequence (whole entry): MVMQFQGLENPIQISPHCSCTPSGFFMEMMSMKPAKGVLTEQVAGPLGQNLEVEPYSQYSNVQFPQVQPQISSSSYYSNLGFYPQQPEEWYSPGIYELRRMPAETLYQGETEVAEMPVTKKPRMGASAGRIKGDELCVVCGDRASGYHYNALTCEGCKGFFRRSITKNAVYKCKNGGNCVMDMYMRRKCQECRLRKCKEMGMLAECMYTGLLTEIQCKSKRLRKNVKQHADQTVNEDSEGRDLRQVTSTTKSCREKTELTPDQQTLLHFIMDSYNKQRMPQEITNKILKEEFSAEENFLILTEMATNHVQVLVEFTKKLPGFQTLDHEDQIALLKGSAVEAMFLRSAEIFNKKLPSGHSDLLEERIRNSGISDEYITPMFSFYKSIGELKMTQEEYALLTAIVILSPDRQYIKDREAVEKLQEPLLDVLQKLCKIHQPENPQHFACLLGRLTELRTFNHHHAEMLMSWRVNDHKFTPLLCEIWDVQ
Test: Agonist activity at recombinant human GST-tagged FXR LBD (193 to 472 residues) expressed in baculovirus-infected insect cells assessed as recruitment of biotinylated SRC1 peptide measured after 1 hr by Alphascreen assay relative to CDCA

- Efficacy: 131%
SMILES: CC[C@H]1[C@@H](O)[C@@H]2[C@H](CC[C@]3(C)[C@@H]([C@H](C)CCC(=O)NCCS(=O)(=O)O)CC[C@@H]23)[C@@]2(C)CC[C@@H](O)C[C@@H]12
